This is an account of results in patent EP1538202A2.

Chains of the proteins cited; added tags and fusions are not shown. Lines headed by an entry give the natural chain unless they say otherwise; changes in a name come on top. Residues count along the entry.
mannose-6-phosphate (M6P) receptor on human cells (Fabry patient skin fibroblasts, HUVECs) (human), P11717, UniProt P11717, 41-2491: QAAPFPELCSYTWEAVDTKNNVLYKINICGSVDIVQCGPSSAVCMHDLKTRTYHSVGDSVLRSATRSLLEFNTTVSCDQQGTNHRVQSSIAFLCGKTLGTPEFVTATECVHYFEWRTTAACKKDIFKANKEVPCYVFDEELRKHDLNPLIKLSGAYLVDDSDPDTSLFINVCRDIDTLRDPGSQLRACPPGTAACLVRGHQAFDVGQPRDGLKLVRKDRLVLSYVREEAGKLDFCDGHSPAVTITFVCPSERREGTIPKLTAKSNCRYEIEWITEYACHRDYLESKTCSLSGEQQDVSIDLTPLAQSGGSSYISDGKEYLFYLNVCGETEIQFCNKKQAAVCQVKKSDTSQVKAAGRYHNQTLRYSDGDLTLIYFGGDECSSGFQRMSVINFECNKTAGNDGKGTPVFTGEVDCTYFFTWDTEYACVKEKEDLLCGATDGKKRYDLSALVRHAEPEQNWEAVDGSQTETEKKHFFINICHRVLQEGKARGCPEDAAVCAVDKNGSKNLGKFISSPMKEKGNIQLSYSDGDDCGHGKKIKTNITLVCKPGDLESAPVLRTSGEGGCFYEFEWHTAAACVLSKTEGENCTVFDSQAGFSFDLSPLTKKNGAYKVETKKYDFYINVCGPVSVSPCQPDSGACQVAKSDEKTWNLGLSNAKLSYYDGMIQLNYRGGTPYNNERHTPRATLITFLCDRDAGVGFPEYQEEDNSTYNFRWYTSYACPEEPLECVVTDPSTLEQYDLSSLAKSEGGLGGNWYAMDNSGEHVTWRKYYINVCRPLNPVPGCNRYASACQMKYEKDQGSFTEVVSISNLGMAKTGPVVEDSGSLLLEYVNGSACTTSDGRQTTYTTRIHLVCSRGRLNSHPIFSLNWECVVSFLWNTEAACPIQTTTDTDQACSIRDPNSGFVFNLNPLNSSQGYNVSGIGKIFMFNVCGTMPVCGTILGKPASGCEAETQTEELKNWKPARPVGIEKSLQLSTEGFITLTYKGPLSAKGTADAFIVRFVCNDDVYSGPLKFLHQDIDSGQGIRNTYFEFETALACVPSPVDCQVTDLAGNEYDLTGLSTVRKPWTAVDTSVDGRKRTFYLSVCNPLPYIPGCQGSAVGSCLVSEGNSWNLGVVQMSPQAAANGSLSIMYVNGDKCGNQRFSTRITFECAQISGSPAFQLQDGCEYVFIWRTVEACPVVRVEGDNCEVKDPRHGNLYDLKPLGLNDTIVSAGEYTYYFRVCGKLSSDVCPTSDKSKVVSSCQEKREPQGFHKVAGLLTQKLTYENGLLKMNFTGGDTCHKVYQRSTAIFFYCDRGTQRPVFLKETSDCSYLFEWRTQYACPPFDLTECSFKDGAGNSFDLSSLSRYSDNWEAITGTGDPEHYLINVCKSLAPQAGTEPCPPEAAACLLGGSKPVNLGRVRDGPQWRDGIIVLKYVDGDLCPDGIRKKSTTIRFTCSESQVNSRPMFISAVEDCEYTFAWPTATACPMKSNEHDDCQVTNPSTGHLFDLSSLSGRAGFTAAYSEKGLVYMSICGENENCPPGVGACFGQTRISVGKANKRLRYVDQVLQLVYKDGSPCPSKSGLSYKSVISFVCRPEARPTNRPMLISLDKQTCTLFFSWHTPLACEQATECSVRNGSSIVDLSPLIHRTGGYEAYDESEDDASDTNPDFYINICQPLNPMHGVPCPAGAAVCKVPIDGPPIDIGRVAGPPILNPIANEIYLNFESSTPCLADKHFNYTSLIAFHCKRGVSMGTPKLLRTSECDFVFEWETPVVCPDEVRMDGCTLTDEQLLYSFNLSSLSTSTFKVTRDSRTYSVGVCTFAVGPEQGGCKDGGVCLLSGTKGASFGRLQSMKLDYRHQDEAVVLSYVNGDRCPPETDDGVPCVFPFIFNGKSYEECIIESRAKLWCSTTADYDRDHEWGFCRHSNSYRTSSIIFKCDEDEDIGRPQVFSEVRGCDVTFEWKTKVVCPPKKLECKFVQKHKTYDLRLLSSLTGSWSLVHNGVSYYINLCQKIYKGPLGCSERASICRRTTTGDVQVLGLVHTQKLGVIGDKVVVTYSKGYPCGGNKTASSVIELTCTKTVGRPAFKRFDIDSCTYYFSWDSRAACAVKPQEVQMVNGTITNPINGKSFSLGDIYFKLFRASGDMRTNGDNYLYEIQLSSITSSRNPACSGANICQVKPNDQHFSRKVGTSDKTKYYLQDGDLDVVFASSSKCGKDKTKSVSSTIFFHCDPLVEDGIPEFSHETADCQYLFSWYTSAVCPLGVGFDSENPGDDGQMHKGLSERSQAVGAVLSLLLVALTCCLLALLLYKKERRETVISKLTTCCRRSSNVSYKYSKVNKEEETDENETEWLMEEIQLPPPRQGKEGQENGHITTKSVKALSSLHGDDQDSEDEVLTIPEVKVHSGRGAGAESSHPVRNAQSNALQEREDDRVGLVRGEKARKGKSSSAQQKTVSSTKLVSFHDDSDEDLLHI

This assay has as its target mannose-6-phosphate (M6P) receptor on human cells (Fabry patient skin fibroblasts, HUVECs) (human), P11717. In words: cell-based or functional assay.

B1: human α-galactosidase A (α-gal A) produced by stably transfected human fibroblasts, P06280 32-429 (enzyme)
chain: LDNGLARTPTMGWLHWERFMCNLDCQEEPDSCISEKLFMEMAELMVSEGWKDAGYEYLCIDDCWMAPQRDSEGRLQADPQRFPHGIRQLANYVHSKGLKLGIYADVGNKTCAGFPGSFGYYDIDAQTFADWGVDLLKFDGCYCDSLENLADGYKHMSLALNRTGRSIVYSCEWPLYMWPFQKPNYTEIRQYCNHWRNFADIDDSWKSIKSILDWTSFNQERIVDVAGPGGWNDPDMLVIGNFGLSWNQQVTQMALWAIMAAPLFMSNDLRHISPQAKALLQDKDVIAINQDPLGKQGYQLRQGDNFEVWERPLSGLAWAVAMINRQEIGGPRSYTIAVASLGKGVACNPACFITQLLPVKRKLGFYEWTSRLRSHINPTGTVLLQLENTMQMSLKDLL
modifications: here or on the partner: N-linked oligosaccharides carrying sialic acid (approximately 4-6 sialic acids/monomer) and one or more mannose-6-phosphate residues; positions not given
In turn, B1 yielded an intracellular α-gal A enzyme level in HUVECs after overnight culture with 7500 units of α-gal A, against control cells of 10 fold.
